# Data: article PMC3196593 (Journal of medicinal chemistry, 2011)
# Tested on: HL-60 cells
# Assay: Cytotoxicity in combination with doxorubicin
# Type: cell-based, human
# Settings: 1 μM of PAD inhibitor
smiles,measurement,value
"N=C(CCl)NCCC[C@H](NC(=O)c1ccccc1)C(N)=O.O=C(O)C(F)(F)F [Compound 1, Cl-amidine]",decrease in the EC50 for doxorubicin,~ 2 fold
